Measured values: US20220363709A1, “ECTONU[…] METHODS OF USE THEREOF” (priority 2019, published 2022)

By UniProt entry, the sequences of proteins in these tests, tags left out. Residues count along the entry.
UniProt P21589, 27-547 limits assumed: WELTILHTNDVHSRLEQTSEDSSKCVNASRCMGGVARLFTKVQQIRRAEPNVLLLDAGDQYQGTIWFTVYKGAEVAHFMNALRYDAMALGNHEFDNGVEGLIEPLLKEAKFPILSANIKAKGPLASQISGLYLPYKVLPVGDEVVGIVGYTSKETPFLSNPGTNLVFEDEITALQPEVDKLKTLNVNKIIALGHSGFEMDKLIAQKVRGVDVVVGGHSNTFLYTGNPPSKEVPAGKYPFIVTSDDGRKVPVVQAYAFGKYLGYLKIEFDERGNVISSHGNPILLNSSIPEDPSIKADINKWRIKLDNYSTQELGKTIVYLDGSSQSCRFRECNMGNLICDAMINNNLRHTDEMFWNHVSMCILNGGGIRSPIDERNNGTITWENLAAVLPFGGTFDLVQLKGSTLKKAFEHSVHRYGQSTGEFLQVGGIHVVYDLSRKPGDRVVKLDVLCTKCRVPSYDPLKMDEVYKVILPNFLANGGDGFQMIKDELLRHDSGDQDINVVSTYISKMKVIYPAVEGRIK

Target: recombinant CD73 (Homo sapiens, UniProt P21589)
Assay: Assay 1: Inhibition of the CD73 Enzyme In Vitro
Details: read-out: Assay 1 CD73 IC50; soluble recombinant CD73 0.5 nM, AMP 50 μM, 30 minutes at room temperature, Malachite Green, absorbance at 630 nm

SMILES: Nc1nc(Cl)nc2c1ncn2[C@@H]1O[C@H](CO[C@@](Cc2ccccc2)(C(=O)O)c2nc[nH]n2)[C@@H](O)[C@H]1O (single isomer, unassigned)
- IC50: 5.86 µM

SMILES: Nc1nc(Cl)nc2c1ncn2[C@@H]1O[C@H](CO[C@](Cc2ccccc2)(C(=O)O)c2nc[nH]n2)[C@@H](O)[C@H]1O (single isomer, unassigned)
- IC50: 0.42 µM
